In the test the target is T1, collagenase (MMP-1) (Homo sapiens, UniProt P03956).
T1 construct: endogenous in cells; host or cells: human fibroblast
T1 sequence (P03956 100-469): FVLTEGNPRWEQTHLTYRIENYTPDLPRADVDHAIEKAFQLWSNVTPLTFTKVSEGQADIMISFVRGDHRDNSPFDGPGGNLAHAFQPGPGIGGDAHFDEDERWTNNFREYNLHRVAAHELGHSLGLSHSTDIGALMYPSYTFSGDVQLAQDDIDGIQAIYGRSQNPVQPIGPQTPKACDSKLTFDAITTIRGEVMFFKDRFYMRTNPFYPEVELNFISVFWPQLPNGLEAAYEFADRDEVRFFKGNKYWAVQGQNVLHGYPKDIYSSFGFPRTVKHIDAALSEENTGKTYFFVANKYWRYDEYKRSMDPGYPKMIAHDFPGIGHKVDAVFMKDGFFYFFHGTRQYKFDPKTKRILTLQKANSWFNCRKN
The test can be described thus: Assay for Collagenase Inhibitory Activity (MMP-1). The format is biochemical. The following applies: fluorescein-labeled bovine type I collagen substrate, 35° C., 2 hours, pH 7.5; read-out: Inhibitory activities for matrix metalloproeinases (MMPs), MMP-1, IC50 value. The protocol: Inhibitory activities of the compounds represented by the general formula (I) according to the invention for collagenase (metalloproteinase concerned with a tissue destruction) derived from human fibroblast were tested by the method of Y. Murawaki et al., [Journal of Hepatology, 18, p. 328-334 (1993)], and their inhibitory activities for stromelysin derived from human fibroblast were measured by the method of S. S. Twining et al., [Anal. Biochem., 143, p. 30 (1984)].
Inhibitory activities for collagenase (MMP-1) of the compounds of Examples and comparative compounds were measured by the method of Y. Murawaki et al., [Journal of Hepatology, 18, p. 328-334 (1993)]. The latent procollagenase was activated by incubating with mercury aminophenylacetate (2 mM) at 35° C. for 2 hours. The assay was done by using bovine type I collagen labeled with fluorescein as a substrate. The activated collagenase was added to the substrate solution (0.5 mg/ml) in Tris HCl buffer (50 mM, pH 7.5) containing sodium chloride (0.4 M) and calcium chloride (10 mM). The obtained solution was incubated at 35° C. for 2 hours. The enzyme digestion was stopped by the addition of o-phenanthroline (80 mM). […] The supernatant was taken, and its intensity of fluorescence was determined by the excitation wavelength (495 nm) and the measured wavelength (520 nm), and the inhibitory activity was obtained. […]

SMILES strings stand for the structures.

A word on the IC50: it is the concentration at which inhibition is half-maximal. With `CNC(=O)[C@H](Cc1ccc(OC)cc1)NC(=O)[C@@H](CC(=O)NO)CC(C)C` [Comparative Compound 1, N-[4-(N-Hydroxyamino)-2(R)-isobutylsuccinyl]-O-methyl-L-tyrosine-N-methylamide, reference compound], the IC50 was found to be 4 nM.

The values above are taken from patent publication US6284914A, “Highly water-soluble metalloproteinase inhibitors” (Fuji Yakuhin Kogyo Kabushiki Kaisha, priority 1995, dated 2001).
